For the test, the target named is His-tagged HER2 (UniProt P04626). The experiment in a line: SPR (Biacore T200), His-HER2 captured by anti-His on a CM5 chip, high-density surface (200RU), multicycle kinetics. (SPR reads the build-up and loss of mass on a sensor chip optically.)

Turning to “wild-type Trastuzumab (HEK293-expressed) (antibody)”, the koff (usually a measure of how fast the partners let go of each other) stood at 6e-07 s⁻¹.

Source of the values: patent US20220298256A1.
